# Apparent affinities of Ab-14 variants for a coronavirus HR2 peptide

Data: MIT Lincoln Laboratory AlphaSeq set, Engelhart et al. 2022, doi:10.1038/s41597-022-01779-4, as distributed in FLAb.

All variants were tested on one target, the spike HR2 peptide PDVDLGDISGINAS (SARS-CoV-2).

Each scFv is VH, a (GGGGS)3 linker, VL, as in the parent Ab-14, and differs from it in the CDRs of the heavy chain only.
VH: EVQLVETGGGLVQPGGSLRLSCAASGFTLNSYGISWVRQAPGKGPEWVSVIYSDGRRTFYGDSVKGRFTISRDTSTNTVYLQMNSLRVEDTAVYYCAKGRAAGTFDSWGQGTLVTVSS
VL: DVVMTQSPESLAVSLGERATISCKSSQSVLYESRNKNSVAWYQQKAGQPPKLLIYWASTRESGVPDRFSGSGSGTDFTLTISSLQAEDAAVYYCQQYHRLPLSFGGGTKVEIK

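The parent was found by panning a naive human phage display library on the peptide. The library (AAYL49) carries one to three amino acid substitutions per variant, with no insertions or deletions. AlphaSeq pools MATa yeast showing the antibodies with MATalpha yeast showing the peptide. Pairs that bind mate more often; barcode pairs of the diploids are counted by sequencing. Read counts were normalised to the haploid input and turned into Kd by a linear fit to BCL2-family pairs of known affinity, for each replicate. The assay was run in three technical replicates.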

Changes read parent residue, position, new residue, counted from the first residue of the VH shown. All variants listed here change L29 of the VH, counted from its first residue. The read-out is the apparent dissociation constant on a log10 scale (nM): the lower, the stronger. Replicates are averaged; those with no signal do not enter the mean. A pair that was not seen in any replicate is written "nd"; this usually means weak binding, but a binder can also be missed. Nonspecific signal, from three strains lacking the peptide, appeared in 15% of pairings of library AAYL49, centred on 4.06 (5% of these signals below 2.83); values are not corrected for it. Parent in this assay: reference entry 0.65, copy in this library 4.11 (one replicate of three).

For G26A+L29Q+A101T, the assay gave 1.42 (3 of 3 replicates).
For L29Q+K65T+G99R, the assay gave 4.44 (1 of 3 replicates).
For L29V+R57P+A101P, the assay gave nd (0 of 3 replicates).
For F27T+L29M+D54K, the assay gave nd (0 of 3 replicates).
For F27H+L29R+I51M, the assay gave nd (0 of 3 replicates).
For L29I+T58K, the assay gave 0.98 (3 of 3 replicates).
For L29W+D54M+Y60E, the assay gave nd (0 of 3 replicates).
For L29G+R56L+R57Q, the assay gave 3.58 (1 of 3 replicates).
For L29I+S53T+A102Q, the assay gave 4.18 (2 of 3 replicates).
For L29G+I51T+S63D, the assay gave nd (0 of 3 replicates).
For L29I+T58C+A102T, the assay gave nd (0 of 3 replicates).
For T28L+L29Y+R57V, the assay gave 4.33 (1 of 3 replicates).
For L29M+V50K+G61E, the assay gave 4.53 (2 of 3 replicates).
For L29F, the assay gave 1.80 (3 of 3 replicates).
For L29R+D54W+R57P, the assay gave nd (0 of 3 replicates).
For T28W+L29P+G33A, the assay gave 3.22 (1 of 3 replicates).
For L29Y+S35Q+D106Q, the assay gave 4.96 (1 of 3 replicates).
For L29E+I34M, the assay gave nd (0 of 3 replicates).
For L29R+N30C+S53D, the assay gave nd (0 of 3 replicates).
For G26N+L29Y, the assay gave 3.67 (1 of 3 replicates).
For G26K+L29W, the assay gave nd (0 of 3 replicates).
For L29Y+Y60G+R100L, the assay gave 3.84 (2 of 3 replicates).
For L29Q+S31N+Y52R, the assay gave 4.41 (2 of 3 replicates).
For L29H+V50P+D106G, the assay gave nd (0 of 3 replicates).
For L29S+S35Q+A102V, the assay gave 5.34 (2 of 3 replicates).
For T28Y+L29A+Y52E, the assay gave 2.56 (1 of 3 replicates).
For L29I+R57E+F105H, the assay gave nd (0 of 3 replicates).
For G26M+F27I+L29I, the assay gave 3.13 (1 of 3 replicates).
For L29R+G103I+S107I, the assay gave nd (0 of 3 replicates).
For L29H+V50N+A101H, the assay gave 4.39 (1 of 3 replicates).
For L29N+R56A+R100Y, the assay gave 4.39 (1 of 3 replicates).
For L29G+D62R+G103A, the assay gave 3.46 (1 of 3 replicates).
For F27N+L29K+Y60H, the assay gave nd (0 of 3 replicates).
For L29E+G33V+I34P, the assay gave nd (0 of 3 replicates).
For L29N+S31C+D54C, the assay gave nd (0 of 3 replicates).
For L29A+R100H+F105L, the assay gave 2.91 (2 of 3 replicates).
For L29D+D54P, the assay gave nd (0 of 3 replicates).
For L29A+Y32F+D62P, the assay gave 4.16 (2 of 3 replicates).
For L29G+I34W+R56Q, the assay gave 4.04 (2 of 3 replicates).
For L29F+N30Q+S107G, the assay gave 3.54 (1 of 3 replicates).
For L29T+V50L+G103V, the assay gave nd (0 of 3 replicates).
For L29E+D54L+A101M, the assay gave 4.92 (1 of 3 replicates).
For L29N+A101H+A102R, the assay gave 4.56 (1 of 3 replicates).
For L29A+F59T+G61V, the assay gave nd (0 of 3 replicates).
For L29A+K65C, the assay gave nd (0 of 3 replicates).
For L29V+I34F+K65E, the assay gave 3.48 (1 of 3 replicates).
For L29H+I34F+V64C, the assay gave 4.68 (2 of 3 replicates).
For L29Y+I34C+F59D, the assay gave nd (0 of 3 replicates).
For L29T+N30A+G61D, the assay gave 2.90 (3 of 3 replicates).
For L29C+D54V+D62L, the assay gave nd (0 of 3 replicates).
For L29C+R57N+F59Q, the assay gave nd (0 of 3 replicates).

A selection of 6 entries from above:

For L29N+S31C+D54C, the assay gave nd (0 of 3 replicates).
For F27H+L29R+I51M, the assay gave nd (0 of 3 replicates).
For L29Y+Y60G+R100L, the assay gave 3.84 (2 of 3 replicates).
For L29Q+S31N+Y52R, the assay gave 4.41 (2 of 3 replicates).
For L29I+S53T+A102Q, the assay gave 4.18 (2 of 3 replicates).
For L29F+N30Q+S107G, the assay gave 3.54 (1 of 3 replicates).